Test: Solubility in water of the salt
Format: physicochemical

Question: For “(R)-5-(4-chlorophenyl)-1-isopropyl-2-methyl-4-(3-(4-(4-((4-((1-(phenylthio)-4-(4-((phosphonooxy)methyl)piperidin-1-yl)butan-2-yl)amino)-3-((trifluoromethyl)sulfonyl)phenyl)sulfonamido)phenyl)piperazin-1-yl)phenyl)-1H-pyrrole-3-carboxylic acid meglumine salt”, which “solubility in water” value is on record?
Answer: high

Reference: patent US20240043456A1, “Crystalline Solid Meglumine Salt Inhibitor of BCL and Methods of Making and Using Same” (Unity Biotechnology, Inc., priority 2020, published 2024)
